Laboratory results published in PubChem BioAssay AID2384 (Southern Research Specialized Biocontainment Screening …, 2010).

System: S. typhi GFP reporter counter-screen, fluorescence, 4 h
Assay: S. typhi counter-screen signal inhibition – fluorescence, 4 h, counter-screen for PhoP regulon inhibitor project, dose response (AID 2384)

SMILES | IC50
O=C(N/N=C/c1ccc([N+](=O)[O-])o1)C1CC1 | 36.3 µM
O=C(Nc1cccnc1)c1ccc([N+](=O)[O-])o1 | 44.3 µM
CCOC(=O)c1cn(CC)c2cc(N3CCN(C)CC3)c(F)cc2c1=O | 128 µM
O=C(NNC(=S)Nc1ccc(Cl)c(Cl)c1)c1ccccn1 | 13.6 µM
CC(C)(C)c1nnc(N/N=C/c2cc(Br)ccc2O)n(N)c1=O | 76.1 µM
